# AlphaSeq binding of Ab-91 heavy chain variants to a spike HR2 peptide

The measurements come from Engelhart et al. 2022 (doi:10.1038/s41597-022-01779-4) through the FLAb antibody collection.

Binding partner: SARS-CoV-2 spike HR2 peptide, sequence PDVDLGDISGINAS.

Each scFv is VL, a (GGGGS)3 linker, VH, as in the parent Ab-91, and differs from it in the CDRs of the heavy chain only.
VL: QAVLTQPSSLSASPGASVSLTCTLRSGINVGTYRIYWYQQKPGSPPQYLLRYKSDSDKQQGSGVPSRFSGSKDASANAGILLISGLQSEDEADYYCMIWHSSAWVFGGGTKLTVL
VH: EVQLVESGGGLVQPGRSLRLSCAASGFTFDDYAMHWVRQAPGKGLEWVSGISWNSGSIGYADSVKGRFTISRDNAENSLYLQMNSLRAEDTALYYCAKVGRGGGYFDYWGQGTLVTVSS

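Variants in AAYL51 differ from the parent at up to three CDR positions; double and triple changes were sampled at random. In AlphaSeq, yeast of one mating type display the scFv and yeast of the other type display the target. Mating (16 h, 30 °C) was followed by selection of diploids and sequencing of their barcodes. A regression on co-assayed BCL2-family reference pairs converts the normalised counts of each replicate to an apparent Kd. Each pool was mated in three replicate cultures.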

Changes read parent residue, position, new residue, counted from the first residue of the VH shown.
All variants listed here change F106 of the VH, counted from its first residue.
Affinities are written as log10 Kd with Kd in nM; a lower number is a better binder.
A mean of the replicates is given; it leaves out those without a signal.
"ND" marks a missing value. The strain was present, yet no cells mated with the target were sequenced in that replicate, which points to weak or no binding.

The variant S55K+K65E+F106C gave ND, ND, ND (controls 0 of 9).
The variant A33D+G50K+F106W gave ND, ND, ND (controls 1 of 9).
The variant T28H+K65N+F106I gave ND, ND, ND (controls 0 of 9).
The variant G104T+F106M gave ND, ND, ND (controls 1 of 9).
The variant D62K+G102L+F106Q gave 3.83, 2.53, 2.89 (mean 3.08; controls 3 of 9).
The variant N54K+V64R+F106E gave 4.91, 6.35, ND (mean 5.63; controls 8 of 9).
The variant F27W+D62C+F106V gave ND, ND, ND (controls 0 of 9).
The variant F106S gave 4.35, ND, 5.49 (mean 4.92; controls 6 of 9).
The variant S52T+F106V gave ND, ND, ND (controls 5 of 9).
The variant G56H+G102D+F106A gave 4.80, 4.68, ND (mean 4.74; controls 1 of 9).
The variant F106T gave 4.04, 4.19, 5.21 (mean 4.48; controls 3 of 9).
The variant S55W+V64F+F106E gave ND, 5.55, ND (controls 1 of 9).
The variant D62Q+F106M gave 0.94, 1.73, 0.99 (mean 1.22; controls 0 of 9).
The variant D62C+F106N+D107V gave ND, 3.41, ND (controls 1 of 9).
The variant R101T+G103W+F106E gave 3.58, ND, ND (controls 2 of 9).
The variant G50D+V64Y+F106V gave ND, ND, ND (controls 0 of 9).
The variant G56I+S63Q+F106Y gave 5.35, 4.64, ND (mean 4.99; controls 4 of 9).
The variant F27T+Y105T+F106D gave 3.44, 3.30, ND (mean 3.37; controls 1 of 9).
The variant I58H+G103R+F106Y gave ND, ND, ND (controls 2 of 9).
The variant Y32L+I58D+F106P gave ND, ND, ND (controls 0 of 9).
The variant Y32K+V99S+F106T gave ND, ND, 2.83 (controls 0 of 9).
The variant D30P+G56P+F106W gave ND, ND, ND (controls 1 of 9).
The variant V99L+F106V+Y108D gave ND, 4.13, ND (controls 3 of 9).
The variant Y32V+S52K+F106T gave 5.22, ND, ND (controls 2 of 9).
The variant I51D+S63K+F106S gave ND, ND, ND (controls 2 of 9).
The variant S55P+A61C+F106S gave ND, ND, ND (controls 0 of 9).
The variant K65Y+Y105R+F106M gave ND, ND, ND (controls 0 of 9).
The variant D30L+G103S+F106E gave 4.43, ND, ND (controls 0 of 9).
The variant V99Q+G103I+F106C gave 1.56, 1.34, 1.15 (mean 1.35; controls 0 of 9).
The variant S63F+G100Y+F106V gave 5.05, ND, ND (controls 1 of 9).
The variant W53Y+F106Y+D107G gave ND, ND, ND (controls 1 of 9).

The 4 strongest on average among those seen in every replicate, once more:

changes	log10 Kd (nM) by replicate	log10 Kd (nM), mean	control signals
D62Q+F106M	0.94, 1.73, 0.99	1.22	0/9
V99Q+G103I+F106C	1.56, 1.34, 1.15	1.35	0/9
D62K+G102L+F106Q	3.83, 2.53, 2.89	3.08	3/9
F106T	4.04, 4.19, 5.21	4.48	3/9

Empty control strains, which show no peptide, gave a signal in 21% of pairings with library AAYL51; the median was 4.54 and 95% of these signals were weaker than 3.26. No background was subtracted. For each scFv, signals with the empty controls are counted beside the result.